Chains of the proteins cited; added tags and fusions are not shown.
UniProt Q8N884, whole entry: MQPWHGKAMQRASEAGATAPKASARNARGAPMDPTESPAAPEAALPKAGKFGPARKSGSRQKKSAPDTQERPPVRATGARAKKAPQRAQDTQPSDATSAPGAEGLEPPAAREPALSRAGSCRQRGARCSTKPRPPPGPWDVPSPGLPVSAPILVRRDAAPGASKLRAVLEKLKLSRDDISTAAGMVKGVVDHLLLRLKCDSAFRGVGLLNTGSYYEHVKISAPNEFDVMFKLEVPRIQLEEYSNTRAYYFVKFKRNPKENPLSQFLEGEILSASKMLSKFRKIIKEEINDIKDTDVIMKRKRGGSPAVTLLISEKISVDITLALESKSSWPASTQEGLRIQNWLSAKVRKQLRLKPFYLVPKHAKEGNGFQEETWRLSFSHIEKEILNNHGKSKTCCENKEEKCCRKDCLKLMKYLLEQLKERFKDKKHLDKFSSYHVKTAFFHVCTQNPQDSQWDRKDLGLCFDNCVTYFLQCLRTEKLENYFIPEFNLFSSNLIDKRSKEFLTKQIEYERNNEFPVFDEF

In patent publication US20250002487A1, “HETEROCYCLIC COMPOUNDS AND USES THEREOF” (Ventus Therapeutics U.S., Inc., priority 2021, published 2025):

Target: human-cGAS (h-cGAS) (Homo sapiens, UniProt Q8N884)
Test: hcGAS Kinase-Glo Assay
Assay type: biochemical
Conditions: read-out: hcGAS potency IC50, 40 nM h-cGAS, 100 μM ATP, 100 μM GTP, 25 nM dsDNA, 3 h incubation
Experimental: In some embodiments, the compounds of the instant disclosure may be tested for their human-cGAS (h-cGAS) inhibition activity using the methodology reported in Lama et al., “Development of human cGAS-specific small molecule inhibitors for repression of double stranded DNA (dsDNA)-triggered interferon expression”, Nature Communications 10, Article number: 2261 (2019), incorporated herein by reference. hcGAS Kinase-Glo Assay Compounds were tested for their human-cGAS (h-cGAS) inhibition activity using the methodology reported in Lama et al., “Development of human cGAS-specific small molecule inhibitors for repression of double stranded DNA (dsDNA)-triggered interferon expression”, Nature Communications 10. Article number: 2261 (2019), which is herein incorporated by reference in its entirety, with slight changes to some conditions as shown in Table B. The results of the assays, expressed in IC50 ranges are reported in Table C with the following designations: A represents an IC50 value <0.1 μM; B represents an IC50 value ≥0.1 μM and <0.5 μM; C represents an IC50 value ≥0.5 μM and <1.0 μM; D represents an IC50 value ≥1.0 μM. [table]

Structure (SMILES) | IC50
CSc1nnc(NC(=O)c2nnc(C3CCCCC3)o2)s1 | 500 to 1000 nM
CSc1nnc(NC(=O)c2nc(C3CCCCC3)no2)s1 | 500 to 1000 nM
